# Test results published in ChEMBL document CHEMBL2417476, “Structure-activity relationships of benzimidazole-based glutaminyl cyclase inhibitors featuring a heteroaryl scaffold” (J Med Chem, 2013).
# Experiments:
# Homo sapiens [1] = species on record: Homo sapiens; assay: Selectivity ratio of Ki for human glutaminyl cyclase I303A mutant to Ki for wild type human glutaminyl cyclase
# Homo sapiens [2] = species on record: Homo sapiens; assay: Selectivity ratio of Ki for human glutaminyl cyclase F325A mutant to Ki for wild type human glutaminyl cyclase
# Homo sapiens [3] = species on record: Homo sapiens; assay: Selectivity ratio of Ki for human glutaminyl cyclase I303N mutant to Ki for wild type human glutaminyl cyclase
# Homo sapiens [4] = species on record: Homo sapiens; assay: Selectivity ratio of Ki for human glutaminyl cyclase H206A mutant to Ki for wild type human glutaminyl cyclase
# Homo sapiens [5] = species on record: Homo sapiens; assay: Selectivity ratio of Ki for human glutaminyl cyclase W207Q mutant to Ki for wild type human glutaminyl cyclase
# Homo sapiens [6] = species on record: Homo sapiens; assay: Selectivity ratio of Ki for human glutaminyl cyclase K144R mutant to Ki for wild type human glutaminyl cyclase
# Homo sapiens [7] = species on record: Homo sapiens; assay: Selectivity ratio of Ki for human glutaminyl cyclase K144M mutant to Ki for wild type human glutaminyl cyclase
# Homo sapiens [8] = species on record: Homo sapiens; assay: Selectivity ratio of Ki for human glutaminyl cyclase F325Y mutant to Ki for wild type human glutaminyl cyclase
# Homo sapiens [9] = species on record: Homo sapiens; assay: Selectivity ratio of Ki for human glutaminyl cyclase I303V mutant to Ki for wild type human glutaminyl cyclase
# Homo sapiens [10] = species on record: Homo sapiens; assay: Selectivity ratio of Ki for human glutaminyl cyclase W329Y mutant to Ki for wild type human glutaminyl cyclase
# Homo sapiens [11] = species on record: Homo sapiens; assay: Selectivity ratio of Ki for human glutaminyl cyclase W329F mutant to Ki for wild type human glutaminyl cyclase
# Homo sapiens [12] = species on record: Homo sapiens; assay: Selectivity ratio of Ki for human glutaminyl cyclase F325N mutant to Ki for wild type human glutaminyl cyclase
# Homo sapiens [13] = species on record: Homo sapiens; assay: Selectivity ratio of Ki for human glutaminyl cyclase H206Q mutant to Ki for wild type human glutaminyl cyclase
# Homo sapiens [14] = species on record: Homo sapiens; assay: Selectivity ratio of Ki for human glutaminyl cyclase W207F mutant to Ki for wild type human glutaminyl cyclase
# Homo sapiens [15] = species on record: Homo sapiens; assay: Selectivity ratio of Ki for human glutaminyl cyclase K144A mutant to Ki for wild type human glutaminyl cyclase
# Homo sapiens [16] = species on record: Homo sapiens; assay: Selectivity ratio of Ki for human glutaminyl cyclase W207L mutant to Ki for wild type human glutaminyl cyclase
# Homo sapiens [17] = species on record: Homo sapiens; assay: Selectivity ratio of Ki for human glutaminyl cyclase I303F mutant to Ki for wild type human glutaminyl cyclase
smiles,measurement,setting,value
c1ccc2[nH]cnc2c1 [BENZIMIDAZOLE],Ratio Ki,Homo sapiens [1],1.4
same,Ratio Ki,Homo sapiens [2],11.4
same,Ratio Ki,Homo sapiens [3],1.8
same,Ratio Ki,Homo sapiens [4],1
same,Ratio Ki,Homo sapiens [5],1.1
same,Ratio Ki,Homo sapiens [6],1.7
same,Ratio Ki,Homo sapiens [7],1.1
same,Ratio Ki,Homo sapiens [8],5.6
same,Ratio Ki,Homo sapiens [9],1.2
same,Ratio Ki,Homo sapiens [10],4
same,Ratio Ki,Homo sapiens [11],0.3
same,Ratio Ki,Homo sapiens [12],6.7
same,Ratio Ki,Homo sapiens [13],0.9
same,Ratio Ki,Homo sapiens [14],0.8
same,Ratio Ki,Homo sapiens [15],1.1
same,Ratio Ki,Homo sapiens [16],0.7
same,Ratio Ki,Homo sapiens [17],2.2
